Experiments:
[1] = molecular target: human muscarinic M4 receptor (Homo sapiens, UniProt P08173); assay: Alphascreen Surefire phospho-ERK1/2 functional assay, M4; assay type: cell-based; conditions: CHO cells stably expressing human M4; for M4 % Emax cf. ACh: Emax relative to ACh; for pEC50 M4: phospho-ERK1/2
[2] = molecular target: human muscarinic M1 receptor (Homo sapiens, UniProt P11229); assay: Alphascreen Surefire phospho-ERK1/2 functional assay, M1; conditions: CHO cells stably expressing human M1; for M1 % Emax cf. ACh: Emax relative to ACh; for pEC50 M1: phospho-ERK1/2
[3] = molecular target: human muscarinic M2 receptor (Homo sapiens, UniProt P08172); assay: Alphascreen Surefire phospho-ERK1/2 functional assay, M2; conditions: CHO cells stably expressing human M2
[4] = molecular target: human muscarinic M3 receptor (Homo sapiens, UniProt P20309); assay: Alphascreen Surefire phospho-ERK1/2 functional assay, M3; conditions: CHO cells stably expressing human M3

The chains behind the UniProt entries cited, without tags or fusion partners.
UniProt P08173, whole entry: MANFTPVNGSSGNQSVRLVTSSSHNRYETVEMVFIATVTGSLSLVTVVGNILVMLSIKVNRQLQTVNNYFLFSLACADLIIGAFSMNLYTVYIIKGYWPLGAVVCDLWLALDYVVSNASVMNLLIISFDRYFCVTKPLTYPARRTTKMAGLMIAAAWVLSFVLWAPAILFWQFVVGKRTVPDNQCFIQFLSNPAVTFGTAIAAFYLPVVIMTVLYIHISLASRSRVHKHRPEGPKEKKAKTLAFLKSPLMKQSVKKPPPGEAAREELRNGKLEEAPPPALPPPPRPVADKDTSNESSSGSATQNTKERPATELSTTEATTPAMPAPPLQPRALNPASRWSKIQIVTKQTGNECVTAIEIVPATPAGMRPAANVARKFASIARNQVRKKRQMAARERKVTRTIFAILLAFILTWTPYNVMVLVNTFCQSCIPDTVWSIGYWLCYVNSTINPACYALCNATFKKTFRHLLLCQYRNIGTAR
UniProt P11229, whole entry: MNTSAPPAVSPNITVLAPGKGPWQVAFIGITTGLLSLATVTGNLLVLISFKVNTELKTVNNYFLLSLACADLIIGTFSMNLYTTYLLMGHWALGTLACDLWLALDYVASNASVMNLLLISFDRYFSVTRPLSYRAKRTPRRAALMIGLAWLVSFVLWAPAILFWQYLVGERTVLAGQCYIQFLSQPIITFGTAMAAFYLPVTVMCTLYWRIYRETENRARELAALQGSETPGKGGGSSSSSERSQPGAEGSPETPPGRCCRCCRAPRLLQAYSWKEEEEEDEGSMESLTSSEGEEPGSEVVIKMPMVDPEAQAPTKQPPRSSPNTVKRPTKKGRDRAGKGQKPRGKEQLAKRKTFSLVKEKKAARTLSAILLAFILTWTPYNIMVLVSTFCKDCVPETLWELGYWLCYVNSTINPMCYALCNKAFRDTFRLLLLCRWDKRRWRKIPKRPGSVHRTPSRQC
UniProt P08172, whole entry: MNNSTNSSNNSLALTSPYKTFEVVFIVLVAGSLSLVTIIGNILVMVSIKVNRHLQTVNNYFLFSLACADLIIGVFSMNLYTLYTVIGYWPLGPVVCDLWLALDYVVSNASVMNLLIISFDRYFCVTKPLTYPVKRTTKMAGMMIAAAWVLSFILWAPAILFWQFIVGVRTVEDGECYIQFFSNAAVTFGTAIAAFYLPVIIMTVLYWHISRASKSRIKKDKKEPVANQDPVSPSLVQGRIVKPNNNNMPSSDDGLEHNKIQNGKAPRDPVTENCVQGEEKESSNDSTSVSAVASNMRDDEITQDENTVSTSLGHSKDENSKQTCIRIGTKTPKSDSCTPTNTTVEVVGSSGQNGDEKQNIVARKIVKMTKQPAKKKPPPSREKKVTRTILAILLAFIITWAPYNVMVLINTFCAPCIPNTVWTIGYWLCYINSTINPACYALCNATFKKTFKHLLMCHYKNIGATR
UniProt P20309, whole entry: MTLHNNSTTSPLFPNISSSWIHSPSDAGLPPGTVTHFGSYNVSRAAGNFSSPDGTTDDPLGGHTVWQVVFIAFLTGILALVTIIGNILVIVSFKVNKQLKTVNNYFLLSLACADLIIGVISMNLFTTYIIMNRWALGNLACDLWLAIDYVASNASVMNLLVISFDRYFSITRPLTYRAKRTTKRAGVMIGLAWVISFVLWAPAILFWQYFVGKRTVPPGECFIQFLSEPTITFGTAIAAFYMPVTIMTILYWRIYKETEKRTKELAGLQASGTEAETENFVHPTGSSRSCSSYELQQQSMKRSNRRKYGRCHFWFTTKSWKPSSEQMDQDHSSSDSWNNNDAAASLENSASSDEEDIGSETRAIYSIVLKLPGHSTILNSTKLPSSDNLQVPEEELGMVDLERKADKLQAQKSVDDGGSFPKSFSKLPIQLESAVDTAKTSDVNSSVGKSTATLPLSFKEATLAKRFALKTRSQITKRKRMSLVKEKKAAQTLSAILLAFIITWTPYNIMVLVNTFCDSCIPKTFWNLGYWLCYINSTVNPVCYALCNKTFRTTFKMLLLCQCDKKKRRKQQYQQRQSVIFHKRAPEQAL

SMILES: CCCC(=O)N1CCC2(CC(N3CCC4(CC3)CNC(=O)O4)C2)C1 (single isomer, unassigned)
- M4 % Emax cf. ACh [1]: (91) %
- pEC50 M4 [1]: 6.1
- M1 % Emax cf. ACh [2]: (66) %
- pEC50 M1 [2]: 6.0

SMILES: COC(=O)N1CCC2(CC(N3CCC4(CC3)CNC(=O)N4)C2)C1 (single isomer, unassigned)
- M4 % Emax cf. ACh [1]: (68) %
- pEC50 M4 [1]: 5.5
- M1 % Emax cf. ACh [2]: (113) %
- pEC50 M1 [2]: 5.6

SMILES: O=C1NCC2(CCN(C3CC4(CCN(C(=O)OCCF)C4)C3)CC2)O1 (single isomer, unassigned)
- M4 % Emax cf. ACh [1]: (74) %
- pEC50 M4 [1]: 6.4
- M1 % Emax cf. ACh [2]: (50) %
- pEC50 M1 [2]: 6.1

SMILES: [2H]C([2H])([2H])N1C(=O)CC2(CCN(C3CC4(CCN(C(=O)OCC)C4)C3)CC2)N1CC (single isomer, unassigned)
- M4 % Emax cf. ACh [1]: (51) %
- pEC50 M4 [1]: 6.1
- M1 % Emax cf. ACh [2]: (6) %
- pEC50 M1 [2]: <4.7

SMILES: [2H]C([2H])([2H])N1C(=O)CC2(CCN(C3CC4(CCN(C(=O)OCC)C4)C3)CC2)N1CCC (single isomer, unassigned)
- M4 % Emax cf. ACh [1]: (111) %
- pEC50 M4 [1]: 7.4
- M1 % Emax cf. ACh [2]: (86) %
- pEC50 M1 [2]: 6.2

SMILES: [2H]C([2H])([2H])N1C(=O)OC2(CCN(C3CC4(CCN(C(=O)OCC)C4)C3)CC2)C1CC (single isomer, unassigned)
- M2 % Emax cf. ACh ([3]; Emax relative to ACh): (3) %
- pEC50 M2 ([3]; phospho-ERK1/2): <4.7
- M3 % Emax cf. ACh ([4]; Emax relative to ACh): (3) %
- pEC50 M3 ([4]; phospho-ERK1/2): <4.7
- M4 % Emax cf. ACh [1]: (76) %
- pEC50 M4 [1]: 7.6
- M1 % Emax cf. ACh [2]: (90) %
- pEC50 M1 [2]: 6.9

From US10167284B2, “Spirocyclic compounds as agonists of the muscarinic M1 receptor and/or M4 receptor” (HEPTARES THERAPEUTICS LIMITED, priority 2015, dated 2019)
